Laboratory results: PubChem BioAssay (NCI)
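Step 1: Grow cells in 96-well plates. Step 2: Expose to compound for 48 hours at 5 concentrations. Step 3: Interpolate endpoints linearly; if unreached, use highest concentration. Abbreviation: GI50, concentration required for 50% inhibition of growth. Definition used: TGI = concentration required for complete inhibition of growth.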

Legend:
Test in all cases: NCI-60 cell line screen, 48 h
SNB-19 CNS = test system: SNB-19 CNS
NCI-H226 lung = test system: NCI-H226 lung
SR leukemia = test system: SR leukemia
OVCAR-3 ovarian = test system: OVCAR-3 ovarian
HCT-116 colon = test system: HCT-116 colon
NCI-H460 lung = test system: NCI-H460 lung
MDA-MB-231 breast = test system: MDA-MB-231 breast
RXF 393 renal = test system: RXF 393 renal
MCF7 breast = test system: MCF7 breast
RPMI-8226 leukemia = test system: RPMI-8226 leukemia
HS 578T breast = test system: HS 578T breast
LOX IMVI melanoma = test system: LOX IMVI melanoma
UACC-257 melanoma = test system: UACC-257 melanoma
CCRF-CEM leukemia = test system: CCRF-CEM leukemia
HOP-92 NSCLC = test system: HOP-92 NSCLC
NCI/ADR-RES ovarian = test system: NCI/ADR-RES ovarian
HCT-15 colon = test system: HCT-15 colon
ACHN renal = test system: ACHN renal
A549 NSCLC = test system: A549 NSCLC
OVCAR-5 ovarian = test system: OVCAR-5 ovarian
SW-620 colon = test system: SW-620 colon
NCI-H522 lung = test system: NCI-H522 lung
COLO 205 colon = test system: COLO 205 colon
HL-60(TB) leukemia = test system: HL-60(TB) leukemia
786-0 renal = test system: 786-0 renal
HOP-62 NSCLC = test system: HOP-62 NSCLC
M14 melanoma = test system: M14 melanoma
CAKI-1 renal = test system: CAKI-1 renal
SK-MEL-2 melanoma = test system: SK-MEL-2 melanoma
SK-MEL-28 melanoma = test system: SK-MEL-28 melanoma
SK-MEL-5 melanoma = test system: SK-MEL-5 melanoma
HCC-2998 colon = test system: HCC-2998 colon
KM12 colon = test system: KM12 colon
U251 CNS = test system: U251 CNS
EKVX NSCLC = test system: EKVX NSCLC
UO-31 renal = test system: UO-31 renal
MALME-3M melanoma = test system: MALME-3M melanoma
MDA-MB-435 = test system: MDA-MB-435
A498 renal = test system: A498 renal
SF-539 CNS = test system: SF-539 CNS
OVCAR-4 ovarian = test system: OVCAR-4 ovarian
NCI-H23 lung = test system: NCI-H23 lung
UACC-62 melanoma = test system: UACC-62 melanoma
OVCAR-8 ovarian = test system: OVCAR-8 ovarian
SF-268 CNS = test system: SF-268 CNS
IGROV1 ovarian = test system: IGROV1 ovarian
K-562 leukemia = test system: K-562 leukemia
SF-295 CNS = test system: SF-295 CNS
MOLT-4 leukemia = test system: MOLT-4 leukemia
SNB-75 CNS = test system: SNB-75 CNS
T-47D breast = test system: T-47D breast
TK-10 renal = test system: TK-10 renal
HT29 colon = test system: HT29 colon
PC-3 prostate = test system: PC-3 prostate
NCI-H322M lung = test system: NCI-H322M lung
SN12C renal = test system: SN12C renal
DU-145 prostate = test system: DU-145 prostate

O=[N+]([O-])c1cc([N+](=O)[O-])c(Nc2ccc(Cl)cc2)c([N+](=O)[O-])c1
GI50 (SNB-19 CNS): 4.75 µM
TGI (SNB-19 CNS): 33.3 µM
GI50 (NCI-H226 lung): 2980 nM
TGI (NCI-H226 lung): 14.5 µM
GI50 (SR leukemia): 2400 nM
TGI (SR leukemia): 9.86 µM
GI50 (OVCAR-3 ovarian): 1970 nM
TGI (OVCAR-3 ovarian): 5.4 µM
GI50 (HCT-116 colon): 1580 nM
TGI (HCT-116 colon): 3.12 µM
GI50 (NCI-H460 lung): 2650 nM
TGI (NCI-H460 lung): 10.4 µM
GI50 (MDA-MB-231 breast): 2610 nM
TGI (MDA-MB-231 breast): 8.66 µM
GI50 (RXF 393 renal): 1980 nM
TGI (RXF 393 renal): 4.77 µM
GI50 (MCF7 breast): 2510 nM
TGI (MCF7 breast): 11.1 µM
GI50 (RPMI-8226 leukemia): 1750 nM
TGI (RPMI-8226 leukemia): 7.41 µM
GI50 (HS 578T breast): 2250 nM
TGI (HS 578T breast): 13.3 µM
GI50 (LOX IMVI melanoma): 2410 nM
TGI (LOX IMVI melanoma): 11.3 µM
GI50 (UACC-257 melanoma): 3.88 µM
TGI (UACC-257 melanoma): 15.7 µM
GI50 (CCRF-CEM leukemia): 2940 nM
TGI (CCRF-CEM leukemia): > 100 µM
GI50 (HOP-92 NSCLC): 1130 nM
TGI (HOP-92 NSCLC): 6.32 µM
GI50 (NCI/ADR-RES ovarian): 2250 nM
TGI (NCI/ADR-RES ovarian): > 100 µM
GI50 (HCT-15 colon): 2240 nM
TGI (HCT-15 colon): 12 µM
GI50 (ACHN renal): 1620 nM
TGI (ACHN renal): 3.58 µM
GI50 (A549 NSCLC): 3.83 µM
TGI (A549 NSCLC): 15.5 µM
GI50 (OVCAR-5 ovarian): 2840 nM
TGI (OVCAR-5 ovarian): 10.7 µM
GI50 (SW-620 colon): 2780 nM
TGI (SW-620 colon): 10.8 µM
GI50 (NCI-H522 lung): 1650 nM
TGI (NCI-H522 lung): 3.91 µM
GI50 (COLO 205 colon): 1750 nM
TGI (COLO 205 colon): 3.98 µM
GI50 (HL-60(TB) leukemia): 1830 nM
TGI (HL-60(TB) leukemia): 5.11 µM
GI50 (786-0 renal): 6.69 µM
TGI (786-0 renal): 19.5 µM
GI50 (HOP-62 NSCLC): 3.84 µM
TGI (HOP-62 NSCLC): 26.5 µM
GI50 (M14 melanoma): 3.4 µM
TGI (M14 melanoma): 14 µM
GI50 (CAKI-1 renal): 3.33 µM
TGI (CAKI-1 renal): > 100 µM
GI50 (SK-MEL-2 melanoma): 13.6 µM
TGI (SK-MEL-2 melanoma): 33.4 µM
GI50 (SK-MEL-28 melanoma): 12.1 µM
TGI (SK-MEL-28 melanoma): 37.1 µM
GI50 (SK-MEL-5 melanoma): 8.06 µM
TGI (SK-MEL-5 melanoma): 20.7 µM
GI50 (HCC-2998 colon): 3.44 µM
TGI (HCC-2998 colon): 14.1 µM
GI50 (KM12 colon): 2560 nM
TGI (KM12 colon): 7.41 µM
GI50 (U251 CNS): 1220 nM
TGI (U251 CNS): 8.55 µM
GI50 (EKVX NSCLC): 3.04 µM
TGI (EKVX NSCLC): 14.9 µM
GI50 (UO-31 renal): 2020 nM
TGI (UO-31 renal): 11.4 µM
GI50 (MALME-3M melanoma): 2670 nM
TGI (MALME-3M melanoma): 12.1 µM
GI50 (MDA-MB-435): 4.96 µM
TGI (MDA-MB-435): 19 µM
GI50 (A498 renal): 2940 nM
TGI (A498 renal): 18.3 µM
GI50 (SF-539 CNS): 3.27 µM
TGI (SF-539 CNS): 15.9 µM
GI50 (OVCAR-4 ovarian): 2670 nM
TGI (OVCAR-4 ovarian): 12.6 µM
GI50 (NCI-H23 lung): 2080 nM
TGI (NCI-H23 lung): 7.87 µM
GI50 (UACC-62 melanoma): 3.21 µM
TGI (UACC-62 melanoma): 16 µM
GI50 (OVCAR-8 ovarian): 1830 nM
TGI (OVCAR-8 ovarian): 16.3 µM
GI50 (SF-268 CNS): 4.01 µM
TGI (SF-268 CNS): 42.1 µM
GI50 (IGROV1 ovarian): 4.58 µM
TGI (IGROV1 ovarian): > 100 µM
GI50 (K-562 leukemia): 2340 nM
TGI (K-562 leukemia): 10.7 µM
GI50 (SF-295 CNS): 2230 nM
TGI (SF-295 CNS): 8.18 µM
GI50 (MOLT-4 leukemia): 3.07 µM
TGI (MOLT-4 leukemia): 8.22 µM
GI50 (SNB-75 CNS): 5.85 µM
TGI (SNB-75 CNS): 30.7 µM
GI50 (T-47D breast): 831 nM
TGI (T-47D breast): 55 µM
GI50 (TK-10 renal): 5.2 µM
TGI (TK-10 renal): 35.4 µM
GI50 (HT29 colon): 2660 nM
TGI (HT29 colon): 8.55 µM
GI50 (PC-3 prostate): 2340 nM
TGI (PC-3 prostate): 14.4 µM
GI50 (NCI-H322M lung): 4.6 µM
TGI (NCI-H322M lung): > 100 µM
GI50 (SN12C renal): 3.64 µM
TGI (SN12C renal): 19.6 µM
GI50 (DU-145 prostate): 4.57 µM
TGI (DU-145 prostate): 18.2 µM
